Target: T1, partially purified pig heart adenosine kinase (Sus scrofa, UniProt A0A5G2R0F5)
T1 construct: partially purified pig heart adenosine kinase; from tissue; host or cells: pig heart
Test: Adenosine kinase (AK) inhibition
Type: biochemical
Description: Adenosine kinase activity was measured essentially as described by Yamada et al. Biochim. Biophys. Acta 660, 36-43 […] with a few minor modifications. Assay mixtures contained 50 mM TRIS-maleate buffer, pH 7.0, 0.1% BSA, 1 mM ATP 1 mM MgCl2, 0.5 μM [U-^14 C]adenosine (400-600 mCi/mmol) and varying duplicate concentrations of inhibitor. The reactions were initiated by addition of approximately 0.1 μU partially purified pig heart adenosine kinase, where one unit is defined as that amount of enzyme required to phosphorylate 1 μmol adenosine per minute. The reactions were incubated for 20 minutes at 37° C. The assay was quenched upon spotting 30 μL aliquots onto 2 cm^2 pieces of Whatman DE81 anion exchange paper. The paper squares were washed for 3 minutes in 6 L distilled/deionized water to remove the unreacted adenosine. […] The amount of ^14 C-AMP was quantified by scintillation counting.

By UniProt entry, the sequences of proteins in these tests, tags left out. Residues count along the entry.
UniProt A0A5G2R0F5, 1-362: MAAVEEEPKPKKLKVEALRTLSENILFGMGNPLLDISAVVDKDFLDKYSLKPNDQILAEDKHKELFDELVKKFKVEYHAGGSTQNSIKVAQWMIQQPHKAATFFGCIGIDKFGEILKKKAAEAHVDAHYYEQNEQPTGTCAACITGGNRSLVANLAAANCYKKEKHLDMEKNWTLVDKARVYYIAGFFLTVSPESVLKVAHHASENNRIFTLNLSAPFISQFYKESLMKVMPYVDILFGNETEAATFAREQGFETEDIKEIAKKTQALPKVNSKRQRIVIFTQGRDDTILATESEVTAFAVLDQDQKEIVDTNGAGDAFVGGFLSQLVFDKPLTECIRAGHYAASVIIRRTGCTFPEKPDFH

C[C@H]1O[C@@H](n2cc(-c3ccccc3)c3c(Nc4ccccc4)ncnc32)[C@H](O)[C@@H]1O [#4, 4-phenylamino-5-phenyl-7-(5-deoxy-1-β-D-ribofuranosyl)pyrrolo[2,3-d]pyrimidine]
IC50: 2 nM

Source: US5721356A, “Orally active adenosine kinase inhibitors” (Gensia, Inc., priority 1995, dated 1998)
